Amino acid sequences for entries named in this document (tags omitted).
UniProt P14416, whole entry, looked up: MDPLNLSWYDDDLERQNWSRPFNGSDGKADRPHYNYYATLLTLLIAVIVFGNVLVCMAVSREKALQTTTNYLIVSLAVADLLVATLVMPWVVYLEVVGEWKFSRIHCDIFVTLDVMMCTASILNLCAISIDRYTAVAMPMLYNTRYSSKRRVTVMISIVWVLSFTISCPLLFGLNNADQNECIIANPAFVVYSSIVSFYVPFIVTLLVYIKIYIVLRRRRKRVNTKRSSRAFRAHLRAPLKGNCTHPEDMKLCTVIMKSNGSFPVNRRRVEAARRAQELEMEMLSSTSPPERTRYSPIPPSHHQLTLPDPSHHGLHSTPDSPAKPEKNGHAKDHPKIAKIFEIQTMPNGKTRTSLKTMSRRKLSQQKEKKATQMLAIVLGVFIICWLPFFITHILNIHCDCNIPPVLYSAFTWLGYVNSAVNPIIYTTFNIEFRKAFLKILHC

The list shows a part of the results, in another mix than the full data. Results filed as inconclusive are left out. Calls of active or inactive are those of the source. Calls come from the whole dose curve; as a rule, active = well fitted activation curve with a large enough effect; inconclusive = small, poorly fitted or top-dose-only effect; inactive = flat fitted curve, though single readings scatter.
What follows are compounds tested against D(2) dopamine receptor (Homo sapiens) (UniProt P14416) (assay: qHTS of D3 Dopamine Receptor Agonist: D2 Dopamine Receptor B-arrestin Agonist Counterscreen). Conditions: DiscoveRx PathHunter D2 beta-arrestin, luminescence, 90 min, percent relative to full dopamine signal; at 76.9 µM (top of the series).
Source text: D3 DARs represent a very important target for the treatment of several neuropsychiatric disorders. Indeed, one of the most promising therapeutic applications for the D3 DAR is in the area of addiction and related disorders. […] These findings have been observed with a number of addictive substances including cocaine, amphetamine, nicotine, and alcohol. […] Increased D3 DAR activity can thus lead to neuroprotective and neurorestorative actions in the CNS. […] This assay is used to profile the activity of the identified D3 dopamine receptor agonist against the D2 dopamine receptor. Greater than 10% of the maximum dopamine agonist response is desired for this assay. NIH Molecular Libraries Probe Production Centers Network [MLPCN] NIH Chemical Genomics Center [NCGC] MLPCN Grant: NS064831 Assay Submitter (PI): David Sibley
DiscoveRx D2 cells were thawed from frozen stock and seeded at 2,100 cells/ 3 uL/well media (DiscoveRx Plating Reagent 2) with MultiDrop Combi dispenser (Thermo Scientific, Logan, UT) onto white tissue culture treated 1536-well Aurora plates (Brooks Automation, Chelmsford, MA) and allowed to attach overnight at 37 deg C, 5% CO2. Next, 23 nL/well of compound solutions in DMSO were added with a pintool transfer (Kalypsis, San Diego, CA). […] The rest of the plate was dispensed with buffer only, 1 uL/well as well. The cells were stimulated by compounds or dopamine control for 90 minutes at 37 deg C, 5% CO2, after which 1.5 ul/well of DiscoveRx detection reagent was added with BioRAPTR FRD dispenser. The detection reagent was prepared by mixing of Galacton Star Substrate, Emerald II solution and PathHunter buffer (supplied by the assay kit) together at 1:5:19 proportion accordingly just prior to dispensing. The plates were incubated at ambient temperature for 1 hour and then the luminescent signal was read on ViewLux plate reader (PerkinElmer, Waltham, MA).
In the case of `Cc1ccc2nc3c(c(C)c2c1)CC(C(Cl)Cl)S3` (stereo not drawn), the activation is reported as inactive: 23.9%. For `Cc1c2c(nc3ccccc13)SC(C(Cl)Cl)C2` (stereo not drawn), the activation was inactive: 2.06%. With `O=c1c2cc([N+](=O)[O-])ccc2[nH]c2c([N+](=O)[O-])cc([N+](=O)[O-])cc12` the activation was inactive: -1.44%.
Note: % of control where 0% means no effect; nearly all actives have a fitted effect of over 70% in size.
